## Yeast mating assay B: variants of the scFv Ab-14

Target peptide (SARS-CoV-2 spike, HR2 region): PDVDLGDISGINAS

Parent scFv Ab-14: VH joined to VL by a 15-residue (Gly4Ser)3 linker. Changes lie in the light chain CDRs alone.
VH: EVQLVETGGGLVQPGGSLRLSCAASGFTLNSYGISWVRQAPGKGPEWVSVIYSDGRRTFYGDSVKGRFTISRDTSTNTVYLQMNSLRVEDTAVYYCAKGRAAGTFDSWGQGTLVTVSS
VL: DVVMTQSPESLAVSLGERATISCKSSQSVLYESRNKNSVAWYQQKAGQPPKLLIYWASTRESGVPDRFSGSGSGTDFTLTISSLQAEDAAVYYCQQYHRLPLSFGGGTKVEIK

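The variants were designed computationally from a first round of random CDR variants and then made and measured. Their group label is 14L_Ctrl (Ctrl: baseline library sampled from a position-specific scoring matrix, with some repeated check sequences). Affinity was read by AlphaSeq, a pooled yeast mating assay with surface-displayed partners. After mating in shaken culture at 30 °C for 16 h, diploids were selected and their barcode pairs sequenced. Each replicate has its own calibration line, from reference interactions of the BCL2 family. The assay was run in six technical replicates.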

The parent's light chain CDRs are KSSQSVLYESRNKNSVA, WASTRES, QQYHRLPLS; each variant's own CDRs replace them letter for letter.
Values are log10 of the apparent Kd in nM; lower means stronger binding.
Replicates are averaged; those with no signal do not enter the mean.
Where no diploid with the target was found in that replicate, the entry reads "nd": below detection, most likely a poor binder, though not proof of it.
Values of this round are not directly comparable with the first-round values of the same sequences.
As a blank, each scFv also met three strains without target: over all light chain designs, 4% of these pairings were detected, typically at 2.64 and seldom below 1.59. For each scFv, signals with the empty controls are counted beside the result, with their mean in brackets.
Where one sequence has several entries in the source, the replicates are listed entry by entry, parted by semicolons.
The authors' rule: three or more of the six replicates give a measured affinity, fewer mean a poor binder.
Of ten entries with the parent sequence, four were seen in most replicates (averages 0.34 to 2.37), three in one and three in none, so single entries are noisy.

| # | CDR-L1 | CDR-L2 | CDR-L3 | log10 Kd (nM) by replicate | log10 Kd (nM), mean | empty controls |
|---|---|---|---|---|---|---|
| 1 | KSRQSVLMESRNKNSVA | WASLRES | QQYHHEPLS | nd nd nd nd nd nd | nd | 0/18 |
| 2 | KIKISVLYESRNKNSVA | AAITREV | QQYHRLPES | nd nd nd nd nd 0.12 | 0.12 | 0/18 |
| 3 | KISQMSLYESRNKNSVA | WAQTRES | QQYHRLPLS | 1.07 1.32 1.19 0.81 1.36 1.14 | 1.15 | 0/18 |
| 4 | KSQQNVLYESRNKNSVA | GASTRES | QQYHRLPLS | -0.19 -0.36 -0.26 -0.37 -0.07 0.08 | -0.20 | 2/18 (2.31) |
| 5 | KSSQSVLEESRNKHSVA | WASTRES | QQYHRFPLS | nd 3.18 2.27 1.58 1.77 2.58 | 2.28 | 1/18 (2.48) |
| 6 | KSSQSDLYESRNKHSVA | HAHTRAR | QQYHKLPLS | 3.26 nd 2.64 nd nd nd | 2.95 | 1/18 (2.65) |
| 7 | KDSQSVLYESRNKNGVA | WASTRES | QQYHRLPLS | nd nd nd nd nd nd | nd | 0/18 |
| 8 | KLSQSVAYESRNKNSVA | QASTRES | QQYARLPLS | -0.23 -0.36 0.02 -0.43 -0.33 -0.27 | -0.27 | 0/18 |
| 9 | KSSQSVTYESRNKNSVA | WASTRES | QQYHRVPLS | nd nd nd nd nd nd | nd | 1/18 (1.47) |
| 10 | KSSQSVLYESRNKWSVA | WASTRES | QQYSRLPLS | nd nd nd nd nd 1.37 | 1.37 | 0/18 |
| 11 | KSSQSVLYDSRNQNSVA | WASTRES | QQYHRLPLS | 1.07 1.12 1.09 1.31 1.59 1.15 | 1.22 | 0/18 |
| 12 | KSSQSVGYESRNKNSVA | WASQRES | QQYHRLPLS | 0.96 nd 1.80 1.91 nd 1.00; 1.25 nd 1.64 nd 1.94 1.43; 1.20 1.90 0.85 1.19 1.59 1.17; 1.65 1.84 1.99 1.61 1.89 1.98; 1.61 1.12 1.02 1.37 1.45 1.89 | 1.51 | 1/90 (2.16) |
| 13 | KSSQSVLYESCNKNSVA | HASTRES | QQYHRLPLS | 1.57 1.85 1.70 1.15 2.04 1.74 | 1.67 | 1/18 (2.26) |
| 14 | KHSQSVLYESRNKNSVA | GASTREA | QQYHRLPLS | 0.08 -0.17 -0.03 -0.29 0.13 0.12 | -0.03 | 1/18 (2.81) |
| 15 | KQSQDWLYEGTNKNSVA | EASTRES | QQYHRLPLS | -0.07 -0.19 -0.17 -0.23 -0.21 -0.01 | -0.15 | 2/18 (2.71) |
| 16 | KSSQSDQYESRNKNSVA | RASYRES | QQYHRLPLS | nd nd nd nd nd nd | nd | 0/18 |
| 17 | KVSQSVLFESRNSNSVA | QESTRES | QQYHRLPLS | 0.32 0.11 0.12 0.01 0.11 0.16 | 0.14 | 1/18 (3.51) |
| 18 | KLSQSVLEESRNKNSVA | GASTRSS | QQYHRLPLS | 0.13 -0.25 -0.12 -0.19 -0.06 -0.22 | -0.12 | 1/18 (4.45) |
| 19 | KSSQSVLYESRNCNSVA | WASTRSS | QQYHRLPLS | 1.56 1.10 1.22 0.92 1.40 0.88 | 1.18 | 1/18 (0.76) |
| 20 | KSSQSVSNESRNKNSVA | GASTRES | QQYHRLPLS | 0.30 0.39 0.25 0.42 0.44 0.45 | 0.38 | 0/18 |
| 21 | KSSQSVLYESRNKNSVA | AASTRES | QQYCRLPLS | 0.35 0.40 0.13 0.35 0.39 0.63 | 0.37 | 3/18 (2.49) |
| 22 | KSSQSVLYESMNKNSVA | WASTRVS | QQYHRLPLS | 0.62 0.75 0.06 0.59 0.65 1.02 | 0.61 | 0/18 |
| 23 | KSSQSVSYESLNKNSVA | WASTRES | QQYHRIPLS | nd nd 2.36 1.95 nd nd | 2.15 | 0/18 |
| 24 | KFSSSVLYEDRNKNSVA | WASTRES | QQYHELPLS | nd 0.98 0.69 1.06 1.38 0.32 | 0.89 | 0/18 |
| 25 | KSSQSVLHESRNKNGVA | WADTRES | QQYHRLPLS | 1.59 nd nd 2.53 nd 1.93 | 2.02 | 0/18 |
| 26 | KLSQSVLYESRNKNSVA | NAMTRES | QQYHRLPLS | -0.06 0.28 0.27 -0.16 -0.22 0.17 | 0.05 | 1/18 (2.48) |
| 27 | KSSQSVLYESGNKNSVA | KASTRES | QQYAWLPLS | 2.90 2.28 1.49 1.65 1.87 1.77 | 1.99 | 0/18 |
| 28 | KMSQSVLYENRNKNSVA | NASTRES | QQYHRLPLS | 0.08 -0.45 -0.34 -0.36 -0.34 -0.20 | -0.27 | 1/18 (1.45) |
| 29 | KSSQSVLVESRNKNSVA | DASLRES | QQYFRLPLS | -0.26 -0.29 -0.29 -0.57 -0.22 -0.30 | -0.32 | 0/18 |
| 30 | KMSQSVLYESNNKNSVA | WASTRES | QQYHRLPLS | 0.98 0.83 1.16 0.58 0.60 0.73 | 0.81 | 0/18 |
| 31 | KWSSSVDYESRNKNSVA | WASRRES | QQYHRLPLS | nd 1.25 2.08 1.74 2.71 0.76 | 1.71 | 0/18 |
| 32 | KISQSVLAESRNKNSVA | WASTRES | QQYHRLPLS | 0.74 0.66 0.67 0.71 0.73 0.58 | 0.68 | 0/18 |
| 33 | KSSQSVLYESDNKNSVA | EASTRDS | QQYHRLPLS | 0.57 0.68 0.50 0.53 0.15 0.65 | 0.52 | 1/18 (2.50) |
| 34 | KSSQSVFYESRNKNSVA | GASTRLS | QQYHRLPLS | 1.06 1.16 1.06 0.99 1.00 0.86 | 1.02 | 1/18 (2.84) |
| 35 | KSSQSVLYESRNLNSVA | GASTRCS | QQYHRLPLS | 1.82 0.95 1.09 1.04 1.21 1.43 | 1.26 | 1/18 (3.20) |
| 36 | KLSQSVLYESRIKNSVA | HASTRES | QQYHRLPLS | 0.25 0.21 0.23 0.21 0.28 0.51 | 0.28 | 0/18 |
| 37 | ESSQSVAYESRNKNSVA | WASTRES | QQYHRLPLS | nd nd 2.20 nd nd nd | 2.20 | 0/18 |
| 38 | KSSQSVLYESRNKNSVA | WASTRES | QQYHHLPLS | 1.99 2.19 1.68 nd 1.56 2.45 | 1.98 | 0/18 |
| 39 | KSSQSVLYESRPKNSVA | SASTREQ | QQCHDLPLS | nd nd nd nd nd nd | nd | 0/18 |
| 40 | KSSQSVLREERNKNSVA | WASTRDS | QQYHRLPLS | nd nd nd nd nd nd | nd | 1/18 (2.11) |
| 41 | KSSQSVLYESRYKNSVA | GASLRES | QQYHRLPLS | 0.71 0.48 0.46 0.49 0.43 0.72 | 0.55 | 2/18 (2.46) |
| 42 | KSSSSVMYESRNKNSVA | WASTRES | QQYERLPFS | 1.17 1.09 2.94 1.89 nd 3.07 | 2.03 | 1/18 (1.49) |
| 43 | KSSQSVLFESRNKNSVA | WASTRES | QQYIRLPLS | nd nd 1.22 nd nd nd | 1.22 | 0/18 |
| 44 | KSSQSVLYESSNKNSVA | WASTRES | QQYQRLPLS | 1.21 1.70 1.81 2.41 2.25 2.32 | 1.95 | 2/18 (2.89) |
| 45 | KISQSVLAESRNKNSVA | WASTRES | QTYHRLPLS | 0.44 0.81 0.31 0.73 0.77 0.49 | 0.59 | 1/18 (2.07) |
| 46 | KSSQSVLYESRNKVSVA | SASTRES | QQYHRLPLS | 1.61 nd nd 1.30 nd 4.13 | 2.35 | 0/18 |
| 47 | KSSQSVHYESRNKNSVA | WASTRES | QQYHRLPLS | nd nd nd nd 2.28 2.53 | 2.41 | 1/18 (2.26) |
| 48 | KISQSVLYESRYKNSVA | WASTRES | QQYHRLPLR | 1.20 0.99 1.23 1.18 1.59 1.12 | 1.22 | 1/18 (4.60) |
| 49 | KSSQSVLYESRNDNSVA | DASTRES | QQYHRLPLS | 0.34 0.17 0.08 0.02 0.25 0.08 | 0.16 | 2/18 (1.99) |

The 8 strongest on average among those seen in every replicate, once more:

{"CDR-L1": "KSSQSVLVESRNKNSVA", "CDR-L2": "DASLRES", "CDR-L3": "QQYFRLPLS", "log10 Kd (nM) by replicate": "-0.26 -0.29 -0.29 -0.57 -0.22 -0.30", "log10 Kd (nM), mean": "-0.32", "empty controls": "0/18"}
{"CDR-L1": "KMSQSVLYENRNKNSVA", "CDR-L2": "NASTRES", "CDR-L3": "QQYHRLPLS", "log10 Kd (nM) by replicate": "0.08 -0.45 -0.34 -0.36 -0.34 -0.20", "log10 Kd (nM), mean": "-0.27", "empty controls": "1/18 (1.45)"}
{"CDR-L1": "KLSQSVAYESRNKNSVA", "CDR-L2": "QASTRES", "CDR-L3": "QQYARLPLS", "log10 Kd (nM) by replicate": "-0.23 -0.36 0.02 -0.43 -0.33 -0.27", "log10 Kd (nM), mean": "-0.27", "empty controls": "0/18"}
{"CDR-L1": "KSQQNVLYESRNKNSVA", "CDR-L2": "GASTRES", "CDR-L3": "QQYHRLPLS", "log10 Kd (nM) by replicate": "-0.19 -0.36 -0.26 -0.37 -0.07 0.08", "log10 Kd (nM), mean": "-0.20", "empty controls": "2/18 (2.31)"}
{"CDR-L1": "KQSQDWLYEGTNKNSVA", "CDR-L2": "EASTRES", "CDR-L3": "QQYHRLPLS", "log10 Kd (nM) by replicate": "-0.07 -0.19 -0.17 -0.23 -0.21 -0.01", "log10 Kd (nM), mean": "-0.15", "empty controls": "2/18 (2.71)"}
{"CDR-L1": "KLSQSVLEESRNKNSVA", "CDR-L2": "GASTRSS", "CDR-L3": "QQYHRLPLS", "log10 Kd (nM) by replicate": "0.13 -0.25 -0.12 -0.19 -0.06 -0.22", "log10 Kd (nM), mean": "-0.12", "empty controls": "1/18 (4.45)"}
{"CDR-L1": "KHSQSVLYESRNKNSVA", "CDR-L2": "GASTREA", "CDR-L3": "QQYHRLPLS", "log10 Kd (nM) by replicate": "0.08 -0.17 -0.03 -0.29 0.13 0.12", "log10 Kd (nM), mean": "-0.03", "empty controls": "1/18 (2.81)"}
{"CDR-L1": "KLSQSVLYESRNKNSVA", "CDR-L2": "NAMTRES", "CDR-L3": "QQYHRLPLS", "log10 Kd (nM) by replicate": "-0.06 0.28 0.27 -0.16 -0.22 0.17", "log10 Kd (nM), mean": "0.05", "empty controls": "1/18 (2.48)"}

From the AlphaSeq antibody data of Li et al. 2023 (doi:10.1038/s41467-023-39022-2), copy in the FLAb collection.